# Patent EP4692089A1, “NITROGEN-CONTAINING HETEROCYCLIC COMPOUND AS AAK1 INHIBITOR” (Alicorn Pharmaceutical Co., Ltd., priority 2023, dated 2024)
# Sequences of proteins named here, by UniProt entry; tags and fusion partners are left off. Residues count along the entry.
# UniProt Q2M2I8, 30-330 limits assumed: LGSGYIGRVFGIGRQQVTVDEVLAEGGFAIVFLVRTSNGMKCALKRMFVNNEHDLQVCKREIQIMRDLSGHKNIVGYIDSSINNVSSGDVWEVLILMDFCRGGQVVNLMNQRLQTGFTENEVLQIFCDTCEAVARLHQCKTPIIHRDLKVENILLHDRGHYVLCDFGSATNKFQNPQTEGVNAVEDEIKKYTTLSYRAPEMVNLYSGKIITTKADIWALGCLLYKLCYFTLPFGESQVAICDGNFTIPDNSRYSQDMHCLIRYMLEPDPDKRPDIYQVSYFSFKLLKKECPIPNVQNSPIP
# UniProt Q2M2I8, whole entry: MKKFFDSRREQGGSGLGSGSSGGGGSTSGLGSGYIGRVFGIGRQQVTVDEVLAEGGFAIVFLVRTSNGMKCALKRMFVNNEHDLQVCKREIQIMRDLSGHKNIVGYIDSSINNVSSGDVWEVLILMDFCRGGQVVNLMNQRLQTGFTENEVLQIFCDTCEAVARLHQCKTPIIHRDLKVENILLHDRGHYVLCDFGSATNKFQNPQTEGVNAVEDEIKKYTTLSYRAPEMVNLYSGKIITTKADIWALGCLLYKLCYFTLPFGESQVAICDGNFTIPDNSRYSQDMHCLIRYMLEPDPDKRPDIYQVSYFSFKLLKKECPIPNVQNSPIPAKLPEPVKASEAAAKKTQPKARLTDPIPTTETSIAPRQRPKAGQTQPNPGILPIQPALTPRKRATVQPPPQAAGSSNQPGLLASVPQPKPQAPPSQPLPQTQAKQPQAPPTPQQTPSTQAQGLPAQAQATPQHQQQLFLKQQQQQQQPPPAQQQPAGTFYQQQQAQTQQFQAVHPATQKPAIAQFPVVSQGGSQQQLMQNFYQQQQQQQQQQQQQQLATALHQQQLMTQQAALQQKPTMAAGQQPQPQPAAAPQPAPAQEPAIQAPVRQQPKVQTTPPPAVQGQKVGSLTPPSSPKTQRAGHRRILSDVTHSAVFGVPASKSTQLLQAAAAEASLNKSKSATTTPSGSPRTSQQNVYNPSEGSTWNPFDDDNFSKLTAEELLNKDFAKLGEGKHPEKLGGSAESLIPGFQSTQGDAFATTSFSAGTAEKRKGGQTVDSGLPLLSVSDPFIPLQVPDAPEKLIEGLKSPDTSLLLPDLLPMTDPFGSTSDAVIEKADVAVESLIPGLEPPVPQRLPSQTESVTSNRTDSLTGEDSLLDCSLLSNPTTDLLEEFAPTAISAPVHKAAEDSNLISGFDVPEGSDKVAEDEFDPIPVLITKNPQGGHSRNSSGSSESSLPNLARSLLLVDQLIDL
# Tests used:
# AAK1 = AAK1 (Homo sapiens, UniProt Q2M2I8); assay: Effect on AP2M1 phosphorylation in 293T cells co-transfected with AAK1 and AP2M1 (Western blot, anti-p-AP2M1); settings: p-AP2M1 level, incubated 3 h, tested form: free base
# AAK1 (30-330) protein [1] = molecular target: T1, AAK1 (30-330) protein (Homo sapiens, UniProt Q2M2I8); assay: CETSA test of binding ability to AAK1 protein (Western blot); settings: tested form: free base
# AAK1 (30-330) protein [2] = molecular target: T1, AAK1 (30-330) protein; assay: AAK1 kinase assay (ADP generated, detected by HPLC); settings: 3.5 nM AAK1, 22 µM ATP, 25°C, 3 h; tested form: free base
SMILES,IC50 (AAK1),EC50 (AAK1 (30-330) protein [1]),IC50 (AAK1 (30-330) protein [2])
CC(C)C[C@@](C)(N)COc1ncc(-c2c[nH]c3ncc(C(F)F)cc23)c(C(F)(F)F)n1,10 to 100 nM,10 to 100 nM,99.5 nM
CC(C)C[C@@](C)(N)COc1ccc(-c2c[nH]c3ncc(C(F)(F)F)cc23)nc1C(F)F,10 to 100 nM,100 to 1000 nM,72.1 nM
CC(C)C[C@@](C)(N)COc1ccc(-c2c[nH]c3ncc(C(F)F)cc23)nc1C(F)F,100 to 1000 nM,10 to 100 nM,67.8 nM
CC(C)C[C@@](C)(N)COc1ccc(-c2c[nH]c3ncc(C(F)F)cc23)cc1C(F)(F)F,10 to 100 nM,10 to 100 nM,89.2 nM
CC(C)C[C@](C)(N)COc1ncc(-c2c[nH]c3ccc(C(F)F)cc23)c(C(F)(F)F)n1,100 to 1000 nM,100 to 1000 nM,96.7 nM
CC(C)C[C@](C)(N)COc1ncc(-c2c[nH]c3ncc(C(F)F)cc23)cc1C(F)F,100 to 1000 nM,10 to 100 nM,113 nM

# The next lines start with the values.
IC50 (AAK1),EC50 (AAK1 (30-330) protein [1]),IC50 (AAK1 (30-330) protein [2]),SMILES
10 to 100 nM,100 to 1000 nM,148 nM,CC(C)C[C@@](C)(N)COc1ncc(-c2c[nH]c3ncc(C(F)F)cc23)cc1C(F)F
10 to 100 nM,10 to 100 nM,124 nM,COc1cnc2[nH]cc(-c3cnc(OC[C@@](C)(N)CC(C)C)c(C(F)F)c3)c2c1
10 to 100 nM,10 to 100 nM,102 nM,CC(C)C[C@@](C)(N)COc1ccc(-c2c[nH]c3ncc(C#N)cc23)nc1C(F)F
10 to 100 nM,100 to 1000 nM,99.6 nM,C=C(C)CC(C)(N)COc1ccc(-c2c[nH]c3nccc(OC)c23)nc1C(F)F (stereo not drawn)
10 to 100 nM,10 to 100 nM,160 nM,COc1cnc2[nH]cc(-c3cnc(OC[C@](C)(N)CC(C)C)c(C(F)F)c3)c2c1
10 to 100 nM,10 to 100 nM,118 nM,CC(C)C[C@](C)(N)COc1ccc(-c2c[nH]c3ncc(C(F)(F)F)cc23)nc1C(F)F
10 to 100 nM,100 to 1000 nM,107 nM,CC(=O)Nc1cc(-c2ccc(OC[C@@](C)(N)CC3(F)COC3)c(C#N)n2)n2nccc2n1
10 to 100 nM,10 to 100 nM,78.4 nM,CC(C)C[C@@](C)(N)COc1ncc(-c2c[nH]c3ccc(C(F)F)cc23)c(C(F)(F)F)n1
10 to 100 nM,10 to 100 nM,88.9 nM,CC(C)C[C@@](C)(N)COc1ccc(-c2c[nH]c3ncc(F)cc23)nc1C(F)F
